# Apparent affinities of Ab-91 variants for a coronavirus HR2 peptide

All variants were tested on one target, the spike HR2 peptide PDVDLGDISGINAS (SARS-CoV-2).

The variants keep the light chain, the linker and the frameworks of Ab-91 (scFv order VL, three GGGGS repeats, VH).
VL: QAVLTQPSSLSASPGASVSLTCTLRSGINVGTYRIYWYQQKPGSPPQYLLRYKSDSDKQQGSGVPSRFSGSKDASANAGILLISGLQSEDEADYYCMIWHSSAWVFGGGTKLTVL
VH: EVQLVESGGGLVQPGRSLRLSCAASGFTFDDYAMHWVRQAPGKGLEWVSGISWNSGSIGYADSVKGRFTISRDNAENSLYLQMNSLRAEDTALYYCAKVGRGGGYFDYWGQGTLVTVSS

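The starting antibody came from a phage panning campaign against this peptide. AAYL51 was designed without a model: most single CDR substitutions and a random sample of double and triple ones. The assay is AlphaSeq: two haploid yeast populations carry antibody and antigen on their surface. After mating in shaken culture at 30 °C for 16 h, diploids were selected and their barcode pairs sequenced. Each replicate has its own calibration line, from reference interactions of the BCL2 family. Mating was done three times.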

Positions count from residue 1 of the parent VH; D31M puts M in place of D.
Values are log10 of the apparent Kd in nM; lower means stronger binding.
A pair that was not seen in that replicate is written "ND"; this usually means weak binding, but a binder can also be missed.

changes	log10 Kd (nM) by replicate	signal with controls
D31M+G59C+G104H	ND ND ND	0 of 9
G100F+R101E+G102D	4.33 5.42 3.56	7 of 9 (4.69)
Y60C+G104P	ND 3.72 ND	0 of 9
Y32F+S57W+G59Q	4.71 ND 4.04	7 of 9 (4.28)
T28Q+D30K+G102Q	2.07 2.67 1.89	4 of 9 (4.47)
T28V+N54T+V99G	4.67 4.30 ND	4 of 9 (4.13)
F29W+S55T+S63L	5.38 ND ND	1 of 9 (4.63)
H35M+N54K+S55L	ND ND ND	4 of 9 (4.63)
S57N+D62R+V64I	ND 4.15 4.28	1 of 9 (4.09)
G50W+I51H+W53P	5.41 ND ND	1 of 9 (4.81)
A33D+A61V+G102Y	ND 3.76 2.53	0 of 9
F27A+D31P+N54W	ND 4.10 ND	3 of 9 (4.73)
A33F+S52H+G103R	ND ND ND	3 of 9 (5.19)
S55K+V99C+F106R	ND ND ND	0 of 9
F29Q+D107H	ND ND ND	0 of 9
G59E+G104L+D107G	ND ND ND	1 of 9 (4.12)
F27T+G56E+G103C	3.77 3.58 3.92	0 of 9
S57D+G104K+Y105D	0.57 0.55 -0.13	4 of 9 (4.98)
I51W+F106I	3.45 ND ND	1 of 9 (2.30)
G26P+S63T+G100N	ND ND ND	0 of 9
H35C+G103V+Y105F	4.48 5.94 5.23	8 of 9 (4.83)
I51Q+G56L+G100S	ND ND ND	3 of 9 (4.50)
D31F+G56C+S63T	3.09 3.40 ND	0 of 9
F27W+W53F+G56E	4.33 6.04 3.63	4 of 9 (4.41)
G100I+G102W+Y108C	ND ND ND	0 of 9
D31C+S52C+G56P	ND ND ND	2 of 9 (4.04)
F29G+S55H+G104A	ND ND 4.22	1 of 9 (4.81)
S52L+G100L+Y108F	5.83 4.08 ND	6 of 9 (4.90)
S55D+R101P+Y108T	3.49 3.45 4.53	5 of 9 (4.77)
T28S+H35G+F106W	ND ND ND	1 of 9 (5.37)
G26I+Y32S+R101L	4.74 ND 5.32	1 of 9 (5.73)
Y32L+S55Y+S57K	4.25 ND ND	6 of 9 (4.83)
G50E+W53K+G103Y	ND ND ND	0 of 9
A33S+D62T+D107K	ND ND ND	0 of 9
G50C+D62I+S63A	ND 5.96 ND	1 of 9 (4.33)
G50P+G100L	4.68 ND 5.82	6 of 9 (5.20)

Three control strains display no target. For library AAYL51, 21% of the pairings with them gave a signal, with a median of 4.54 and one signal in twenty below 3.26, so weak values seen in few replicates may be background. The control count says in how many pairings with the empty strains this scFv gave a signal, with their mean in brackets.

The measurements come from Engelhart et al. 2022 (doi:10.1038/s41597-022-01779-4) through the FLAb antibody collection.